This assay concerns the target G-protein coupled receptor 3 (Homo sapiens, UniProt P46089). Kind of assay: Agonist activity at human GPR3 expressed in HEK293 cells assessed as increase in cAMP accumulation incubated for 30 mins by HTRF assay. It is filed as functional, cell-based.

Amino acid sequences for entries named in this document (tags omitted). A change or cut given only in a name is not applied to a line headed by its entry.
UniProt P46089: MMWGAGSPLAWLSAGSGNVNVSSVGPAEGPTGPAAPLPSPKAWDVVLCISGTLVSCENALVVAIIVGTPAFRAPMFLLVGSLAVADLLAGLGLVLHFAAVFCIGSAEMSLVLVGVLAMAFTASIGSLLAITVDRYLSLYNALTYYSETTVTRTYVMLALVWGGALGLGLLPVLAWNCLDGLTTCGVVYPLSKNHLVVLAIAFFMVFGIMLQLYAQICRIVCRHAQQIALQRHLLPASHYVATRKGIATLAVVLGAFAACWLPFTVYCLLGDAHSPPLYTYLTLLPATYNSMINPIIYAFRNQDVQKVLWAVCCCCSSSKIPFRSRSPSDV

On to `c1ccc2c(c1)[I+]c1ccccc1-2` [DIPHENYLENEIODONIUM CHLORIDE], for which the concentration giving a half-maximal response (EC50) came to 5.17 µM. As to `c1ccc2c(c1)[I+]c1ccccc1-2`, the EC50 was determined as 3.86 µM.

The term EC50 denotes the concentration giving half of the maximal effect.

The record behind these values is ChEMBL document CHEMBL5365417, “The development of diphenyleneiodonium analogs as GPR3 agonists” (Bioorg Med Chem Lett, 2023).
